{"source": "patent US20200315998A1", "about": "“COMPOSITION FOR IMPROVING INTESTINAL BARRIER FUNCTION” (SUNTORY HOLDINGS LIMITED, priority 2017, published 2020)", "test_system": "Caco-2 cells", "assay": "Evaluation of intestinal barrier function improvement: TEER reduction suppression in Caco-2 monolayer with inflammatory cytokines (TNFα, IL-1β, IFNγ)", "type": "cell-based, human", "details": "combined use of phenolic compound and gallic acid, each 10 μM", "source_text": "The intestinal barrier function improvement effect is indicated by, for example, increase in the electrical resistance value (transepithelial electric resistance: TEER) of the intestinal epithelial cells or suppression of the decrease in the TEER. A substance increasing the TEER or suppressing the decrease thereof has the action of normalizing or strengthening the tight junction in the intestinal epithelial cells. The intestinal barrier function improvement effect is also indicated by decrease in the amount of a substance permeating from the intestinal side of the intestinal epithelial cells to the inside of the body. […] If the addition of a test substance suppresses the decrease in the TEER as compared with the case where the substance is not added, the test substance can be evaluated to have the intestinal barrier function improvement effect.\nCaco-2 cells were cultured for three weeks at 37° C. in Transwell (manufactured by Millicell Corporation) using DMEM (Dulbecco's modified Eagle's medium). […] Then, the transepithelial electrical resistance (TEER) of Caco-2 monolayer cells was measured by Millicell-ERS (manufactured by Millipore Corporation). Cells (TEER≥1000 Ω·cm^2) determined that a sufficient tight junction was formed were selected, and used for the next screening. […]", "data": [{"substance": "catechin gallate", "values": [{"measurement": "Synergistic effect (M.V./T/V/)", "value": 2.3}, {"measurement": "TEER reduction suppression ratio (%) +gallic acid (actual measurement value) (M.V.)", "value": 101, "unit": "%"}]}]}
